In patent US5919768A, “Di- and trivalent small molecule selectin inhibitors” (Texas Biotechnology Corporation, priority 1998, dated 1999):

Experiments:
[1] = biological target: T1, E-selectin (Homo sapiens, UniProt P16581); assay: Cell-protein assay: inhibition of binding of HL60 cells (expressing sialyl-Lewis^x) to E-selectin; conditions: HL60 cell binding to selectin fusion protein on magnetic beads
T1 construct: amino terminal lectin, EGF, and complement regulatory-like repeats (CR) 1 and 2; made in house; host or cells: SF21 insect cells, baculovirus (BakPAK)
T1 sequence (P16581 22-301): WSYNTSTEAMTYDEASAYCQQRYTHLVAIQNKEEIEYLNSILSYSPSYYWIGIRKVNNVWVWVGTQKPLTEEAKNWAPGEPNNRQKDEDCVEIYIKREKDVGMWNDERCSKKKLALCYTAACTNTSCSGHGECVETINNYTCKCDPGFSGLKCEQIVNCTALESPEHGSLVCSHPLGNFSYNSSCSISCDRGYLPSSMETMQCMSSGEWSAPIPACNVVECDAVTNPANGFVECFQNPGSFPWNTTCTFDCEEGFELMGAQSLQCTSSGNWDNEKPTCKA
Procedure: (§1) Compounds were assayed for their ability to inhibit the binding of E-, P-, and/or L-selectin to sialyl-Lewis^x.
(§2) The E-selectin binding assays involved assessing the ability of HL60 cells that express sialyl-Lewis^x and Lewis^x to purified E-selectin, P-selectin and L-selectin recombinant proteins (cell-protein assay). A similar binding assay utilizing purified glycolipids and purified L-selectin recombinant protein (glycolipid-protein) was used to assess L-selectin binding.
(§3) All selectin fusion cassettes were generated by PCR from the E-selectin cDNA purchased from R&D Systems (Minneapolis, Minn.), and from the P-selectin and L-selectin cDNAs that were PCR cloned from total RNA extracted from human placenta. The mouse IgG cDNA was cloned from PCR amplified cDNA generated from RNA extracted from the hybridoma cell line 402C10. All fusion cassettes were expressed from baculovirus vectors using the BakPAK method and SF21 cells purchased from Clonetech.
(§4) Recombinant fusion proteins were purified from baculovirus infected culture supernatants by immunoprecipitation using Dynal™ goat anti-mouse IgG coated magnetic beads. […]
(§5) HL60 cells (10^7 cells) were fluorescently labeled with calcein AMC-3099 (Molecular Probes) in RPMI 1640 with 10% fetal calf serum (FCS). […] Binding was quantitated fluorimetrically using a Millipore Cytofluor 2350 fluorimeter. […]

[2] = biological target: T2, P-selectin (Homo sapiens, UniProt P16109); assay: Cell-protein assay: inhibition of binding of HL60 cells (expressing sialyl-Lewis^x) to P-selectin; conditions: HL60 cell binding to selectin fusion protein on magnetic beads
T2 construct: amino terminal lectin, EGF, and complement regulatory-like repeats (CR) 1 and 2; made in house; host or cells: SF21 insect cells, baculovirus (BakPAK)
T2 sequence (P16109 42-321): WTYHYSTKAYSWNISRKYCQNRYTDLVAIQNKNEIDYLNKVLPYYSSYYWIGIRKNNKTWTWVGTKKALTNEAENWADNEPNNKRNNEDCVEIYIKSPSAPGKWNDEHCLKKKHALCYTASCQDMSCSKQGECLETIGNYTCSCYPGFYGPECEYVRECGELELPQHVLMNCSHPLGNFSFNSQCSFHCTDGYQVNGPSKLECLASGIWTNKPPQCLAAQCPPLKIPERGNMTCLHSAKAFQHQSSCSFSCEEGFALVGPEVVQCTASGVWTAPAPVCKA
Procedure: as §1, §2, §3, §4, §5

[3] = biological target: T3, L-selectin (Homo sapiens, UniProt P14151); assay: Selectin binding assay: inhibition of binding of L-selectin to sialyl-Lewis^x (cell-protein; glycolipid-protein assay also mentioned); conditions: in vitro selectin assay
T3 construct: amino terminal lectin, EGF, and complement regulatory-like repeats (CR) 1 and 2; made in house; host or cells: SF21 insect cells, baculovirus (BakPAK)
T3 sequence (P14151 39-318): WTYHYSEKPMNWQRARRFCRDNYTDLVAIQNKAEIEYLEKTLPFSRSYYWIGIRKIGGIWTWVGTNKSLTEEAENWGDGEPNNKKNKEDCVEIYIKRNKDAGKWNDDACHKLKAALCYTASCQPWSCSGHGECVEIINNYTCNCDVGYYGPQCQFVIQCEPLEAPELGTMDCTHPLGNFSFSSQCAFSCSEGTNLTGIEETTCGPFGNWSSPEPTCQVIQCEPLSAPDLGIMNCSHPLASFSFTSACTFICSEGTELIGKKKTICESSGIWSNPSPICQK
Procedure: as §1, §2, §3, §4, §5

| Compound | IC50 [1] | IC50 [2] | IC50 [3] |
| --- | --- | --- | --- |
| O=C(O)Cc1cccc(-c2cc(CCCCc3ccc(O[C@H]4O[C@H](CO)[C@@H](O)[C@H](O)[C@@H]4O)c(-c4cccc(CC(=O)O)c4)c3)ccc2O[C@H]2O[C@H](CO)[C@@H](O)[C@H](O)[C@@H]2O)c1 [Compound A-4, 1,4-Bis-[3-(3-carboxymethylphenyl)-4-(2-α-D-mannopyranosyloxy)phenyl]butane] | 5 mM |  |  |
| O=C(O)Cc1cccc(-c2cc(CCCCCCc3ccc(O[C@H]4O[C@H](CO)[C@@H](O)[C@H](O)[C@@H]4O)c(-c4cccc(CC(=O)O)c4)c3)ccc2O[C@H]2O[C@H](CO)[C@@H](O)[C@H](O)[C@@H]2O)c1 [Compound A-6, 1,6-Bis-[3-(3-carboxymethylphenyl)-4-(2-α-D-mannopyranosyloxy)phenyl]hexane] | 0.5 mM | 0.07 mM |  |
| O=C(O)Cc1cccc(-c2cc(CCCCCCCCCc3ccc(O[C@H]4O[C@H](CO)[C@@H](O)[C@H](O)[C@@H]4O)c(-c4cccc(CC(=O)O)c4)c3)ccc2O[C@H]2O[C@H](CO)[C@@H](O)[C@H](O)[C@@H]2O)c1 [Compound A-9] |  |  | 1 mM |
| O=C(O)Cc1cccc(-c2cc(CCCSCCCSCCCc3ccc(O[C@H]4O[C@H](CO)[C@@H](O)[C@H](O)[C@@H]4O)c(-c4cccc(CC(=O)O)c4)c3)ccc2O[C@H]2O[C@H](CO)[C@@H](O)[C@H](O)[C@@H]2O)c1 [D] |  |  | 5 mM |
